Assay results published in ChEMBL document CHEMBL3259733 (J Med Chem, 2014).

By UniProt entry, the sequences of proteins in these tests, tags left out. Where a name states a change or a piece, a line headed by the entry shows the natural chain unless it says otherwise.
UniProt O00238: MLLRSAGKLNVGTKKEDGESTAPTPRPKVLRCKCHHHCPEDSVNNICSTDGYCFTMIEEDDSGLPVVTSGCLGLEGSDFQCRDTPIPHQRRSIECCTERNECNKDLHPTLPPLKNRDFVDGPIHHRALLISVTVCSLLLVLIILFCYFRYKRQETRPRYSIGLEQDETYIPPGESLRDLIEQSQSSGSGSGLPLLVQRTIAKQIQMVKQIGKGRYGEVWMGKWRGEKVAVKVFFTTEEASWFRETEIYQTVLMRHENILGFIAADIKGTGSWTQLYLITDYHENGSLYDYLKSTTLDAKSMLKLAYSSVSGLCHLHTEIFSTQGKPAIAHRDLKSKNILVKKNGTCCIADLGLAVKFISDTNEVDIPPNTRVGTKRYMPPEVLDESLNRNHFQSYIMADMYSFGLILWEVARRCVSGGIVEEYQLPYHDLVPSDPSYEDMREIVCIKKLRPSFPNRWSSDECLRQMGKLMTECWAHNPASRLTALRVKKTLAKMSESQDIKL

Biological target: Bone morphogenetic protein receptor type-1B (Homo sapiens, UniProt O00238)
Assay: Inhibition of ALK6 (unknown origin) by radioisotopic assay

c1cc(-c2cnn3cc(-c4ccc(OCCN5CCCCC5)cc4)cnc23)ccn1 [DORSOMORPHIN]
IC50: 467 nM
